Common to all, as to type: cell-based, human
One assay relates to MM6-cells. Description: CPA: IL-10 levels of stimulated MM6 cells, ELISA. As to conditions: 25-200 μg/ml; 48 hours; with IFN-γ 100 U/ml. The protocol:
(§1) The instructions of the manufacturers were followed. All these tests are enzyme immunoassays (EIA:s). The principle is that microtiter plate wells are labelled with a cytokine specific capture antibody. If cytokine is present in the samples added to the wells it will be captured to the bottom of the well. To quantify how much cytokine that has been captured a second antibody, labelled with an enzyme is added to the wells. The reaction is thereafter measured as colour developed after addition of a substrate for the enzyme. The values for the test wells are compared with a standard curve obtained by adding a series of known amounts of cytokine. The values obtained for control wells with no substance added are used as background values for cytokine levels. […]
(§2) The cells were split approximately 1:3 the day before stimulation. […] The number of cells was then determined by trypan blue exclusion and the cells were diluted to twice the final test concentration (2×10^6 cells/mL) if not otherwise indicated and 100 μl of cell suspension was added per well in 96 well tissue culture plates (Corning). […] The cell suspension was transferred to new cell culture plates and stored at −20° C. until analyzed. Thereafter the cell suspension was analyzed for presence of neopterin and IL-10 by ELISA (IBL-Hamburg) following the manufacturers instructions.

A further assay has as its system THP-1 cells. Description: CPA: neopterin production by stimulated THP-1 cells. As to conditions: RPMI+10% FCS, 24 hrs, different concentrations. The method, then: as §1, §2
A further assay has as its system MonoMac-6 cells. Kind of assay: Cytokine Profile Assay (CPA): neopterin production by stimulated MonoMac-6 cells, ELISA. To be noted: for Neopterin, Mean of mean: with IFN-γ, 6.6 μg/ml, mean of triplicate means over experiments. The protocol:
The instructions of the manufacturers were followed. All these tests are enzyme immunoassays (EIA:s). The principle is that microtiter plate wells are labelled with a cytokine specific capture antibody. If cytokine is present in the samples added to the wells it will be captured to the bottom of the well. To quantify how much cytokine that has been captured a second antibody, labelled with an enzyme is added to the wells. The reaction is thereafter measured as colour developed after addition of a substrate for the enzyme. The values for the test wells are compared with a standard curve obtained by adding a series of known amounts of cytokine. The values obtained for control wells with no substance added are used as background values for cytokine levels.
The myelomonocytic cell line MonoMac-6 (obtained from DSMZ, accession number ACC 124, Prof. H. W. L. Ziegler-Heitbrock, Inst. For Immunology, University of Munich, Munich) was cultured in cell culture flasks (Corning). Cells were cultured in RPMI 1640 medium (Gibco BRL), containing 20 mM HEPES and L-glutamine and supplemented with 10% heat-inactivated foetal bovine serum (Gibco BRL), penicillin (100 U/mL; Sigma-Aldrich), streptomycin (100 μg/mL; Sigma-Aldrich), sodium pyruvate (1.0 mM;Gibco BRL), human insulin (9 μg/mL; Gibco BRL) and non-essential amino acids (Gibco BRL) or cultured in Panserin 411 (Pan Biotech) supplemented with penicillin (100 U/mL), streptomycin (100 μg/mL).
The cells were split approximately 1:3 the day before stimulation. The stimulation procedure was performed in three steps. The first step was pre-dilution of test substances, to double the final concentration, in cell culture medium. Furthermore, Interferon-γ (IFN-γ) (100 U, PreproTech) was added in the cell culture media for 24 or 48 hours during stimulation of cells with test substances. The number of cells was then determined by trypan blue exclusion and the cells were diluted to twice the final test concentration (2×10^6 cells/mL) if not otherwise indicated and 100 μl of cell suspension was added per well in 96 well tissue culture plates (Corning). Finally, a 100 μl of pre-diluted test substance (triplicate cultures) was added to the tissue culture plates. On each cell culture plate a protein purified from birch extract (Bet v1; Phadia) was added as positive control and HSA was added as negative control. The stimulated cells were cultured at 37° C., 5% CO2, for 24 or 48 hours. The cell suspension was transferred to new cell culture plates and stored at −20° C. until analyzed. Thereafter the cell suspension was analyzed for presence of neopterin and IL-10 by ELISA (IBL-Hamburg) following the manufacturers instructions.
(In general: ELISA stands for enzyme-linked immunosorbent assay.)

In the case of “HSA: human serum albumin, negative control (Sigma Aldrich, CAS No. 70024-90-7)”, in the assay on MM6-cells, the “IL-10 levels (in words)” value was “did not induce IL-10 above background levels”. For the same substance, the “neopterin response (in words)” value in the assay on THP-1 cells was “did not exceed background levels”; in the assay with MonoMac-6 cells (proteins, RPMI+10% FCS, 24 hrs, with IFN-γ 100 U/ml, over the tested concentrations), “did not induce any neopterin production above the background levels”. In addition, in the assay with MonoMac-6 cells (2.2-20 μg/ml, IFN-γ 100 U/ml, 24 h, 1×10^6 cells per ml, RPMI+10% FCS), the “fold increase in neopterin production in the presence of IFN-γ compared to substance only” value is listed as “less than 1 fold”. The “Neopterin, Mean of mean” value was 5.0 nmol/L in the assay with MonoMac-6 cells (RPMI+10% FCS, 24 hrs); 5.4 nmol/L in the assay on MonoMac-6 cells (serum free Panserin 411, 24 hrs); 9.9 nmol/L in the assay with MonoMac-6 cells (serum free Panserin 411, 48 hrs).

The values above are taken from patent publication US20110053163A1, “Biomarker” (BIOVATOR TECHNOLOGIES AB, priority 2007, published 2011).
